Experimental data reported in patent US11628148B2, “Nail hardening composition and method of use” (WELLA OPERATIONS US, LLC, priority 2017, dated 2023).

Assay: Behaviour of the test solution at the highest concentration prepared
Format: physicochemical
Conditions: 10% (w/w) HMD + MA 1:2 in ethanol

Hexamethylene diamine/Maleic acid [Hexamethylene diamine + Maleic acid]
Observation on the solution: Strong Polymerization
Observation on the solution (listed as COMPOSITION example 1): strong precipitation
